Results from US20240262934A1, “STARCH-INDOLE-ACID DERIVATIVE, PREPARATION METHOD THEREFOR, AND USE THEREOF” (SHANDONG SHANWEI IMMUNOTECH CO., LTD., priority 2021, published 2024).

Settings: mouse, in vivo

indoleacetic acid derivatized high-amylose maize starch [HAMSIAA]
content of IAA in blood serum: significantly increased
content of IAA in feces: significantly increased
